The entries are a selection whose mix differs from that of the whole data set. Calls of active or inactive are those of the source. Calls follow the shape of the dose curve; as a rule, active = well fitted activation curve with a large enough effect; inconclusive = small, poorly fitted or top-dose-only effect; inactive = flat fitted curve, though single readings scatter.
target: Relaxin receptor 1 (Homo sapiens) (UniProt Q9HBX9); test: qHTS Assay for Agonists of the Relaxin Receptor RXFP1; conditions: HEK293T-RXFP1 cAMP TR-FRET, 30 min, percent of porcine relaxin response, buffer zero; at 57.5 µM (top of the series); also: nearly all actives have a fitted effect of over 60% in size
Description: NIH Chemical Genomics Center [NCGC] NIH Molecular Libraries Probe Production Centers Network [MLPCN] MLPCN Grant: R03 MH085705-01A1 Assay Submitter (PI): Alexander Agoulnik NCGC Assay Overview: The relaxin hormone is involved in the variety of biological functions in normal tissues and diseases. The role of relaxin is well-established in female reproduction and parturition, mammary gland and endometrial development, maintenance of myometrial quiescence during pregnancy. Relaxin signaling through its G protein-coupled receptor (GPCR) RXFP1 results in ECM remodeling through regulation of collagen deposition, cell invasiveness, proliferation and overall tissue homeostasis. […] Recombinant human relaxin (rhRlx) is currently being tested in clinical trials as a protective agent in congestive heart failure, in treating severe preeclampsia, and as an anti-fibrotic agent in systemic sclerosis. Upon relaxin binding RXFP1 activation leads to the activation of adenylate cyclase (AC) via Gs. cAMP will activate PKA, which phosphorylates many signaling proteins. Thus, detection of cAMP increase is an easy and reliable indication of relaxin receptor activation. To screen for agonists of the relaxin receptor, a HEK293T cell line stably transfected with RXFP1 was used. RXFP1 activation was assayed by changes in cAMP levels as detected with a time-resolved fluorescence energy transfer (TR-FRET) cAMP detection kit.
NCGC Assay Protocol Summary: This is a cell-based assay for cAMP second messenger response to screen for agonists of the RXFP1 receptor. The assay was conducted in the presence of a PDE4 inhibitor (Ro 20174). The cells were lysed and the cAMP levels were measured with a TR-FRET cAMP kit. Presence of cAMP in the cell lysate disrupts binding between the cryptate-labeled anti-cAMP and d2-labeled cAMP pair, leading to a decrease in the TR-FRET signal. Data were normalized to the controls for basal activity (buffer only) and 100% activity (29 nM porcine relaxin). The EC50 values were determined from concentration-response data modeled with the standard Hill equation 1536-well assay protocol for the HEK293 RXFP1 cAMP assay: (1) Add 3 ul HEK293 RXFP1 cell culture. 2000 cells/well in DMEM/F12, 10% FBS, 1x Pen/Strep (dispensed offline with MultiDrop Combi). (2) Incubate 16-24 hr at 37C, 5% CO2. (3) Add 1 ul 400uM Ro20174 in DPBS, 0.05% BSA, 0.005% Tween 20. (3) Add 23 nl compounds in DMSO solution. Final concentration was 0.5 - 58 uM. (4) Incubate 30 min at 37C, 5% CO2. (5) Add 1 ul cAMP-d2 in lysis buffer (HTRF cAMP HiRange kit, CisBio). (6) Add 1 ul anti-cAMP antibody-cryptate in lysis buffer (HTRF cAMP HiRange kit, CisBio). (7) Incubate 30 min at room temperature. (6) Detect the assay plate in a ViewLux plate reader (PerkinElmer) with Ex=320 nm, Em1=615 nm and Em2=665 nm. Keywords: relaxin, RXFP1, RXFP2, G-protein coupled receptor, cAMP, agonist, high throughput screening, MLSMR, MLSCN, NIH Roadmap, qHTS and NCGC
% is scaled to controls: 0 for no effect and ±100 for the full control effect.

Chains of the proteins cited; added tags and fusions are not shown.
UniProt Q9HBX9, whole entry: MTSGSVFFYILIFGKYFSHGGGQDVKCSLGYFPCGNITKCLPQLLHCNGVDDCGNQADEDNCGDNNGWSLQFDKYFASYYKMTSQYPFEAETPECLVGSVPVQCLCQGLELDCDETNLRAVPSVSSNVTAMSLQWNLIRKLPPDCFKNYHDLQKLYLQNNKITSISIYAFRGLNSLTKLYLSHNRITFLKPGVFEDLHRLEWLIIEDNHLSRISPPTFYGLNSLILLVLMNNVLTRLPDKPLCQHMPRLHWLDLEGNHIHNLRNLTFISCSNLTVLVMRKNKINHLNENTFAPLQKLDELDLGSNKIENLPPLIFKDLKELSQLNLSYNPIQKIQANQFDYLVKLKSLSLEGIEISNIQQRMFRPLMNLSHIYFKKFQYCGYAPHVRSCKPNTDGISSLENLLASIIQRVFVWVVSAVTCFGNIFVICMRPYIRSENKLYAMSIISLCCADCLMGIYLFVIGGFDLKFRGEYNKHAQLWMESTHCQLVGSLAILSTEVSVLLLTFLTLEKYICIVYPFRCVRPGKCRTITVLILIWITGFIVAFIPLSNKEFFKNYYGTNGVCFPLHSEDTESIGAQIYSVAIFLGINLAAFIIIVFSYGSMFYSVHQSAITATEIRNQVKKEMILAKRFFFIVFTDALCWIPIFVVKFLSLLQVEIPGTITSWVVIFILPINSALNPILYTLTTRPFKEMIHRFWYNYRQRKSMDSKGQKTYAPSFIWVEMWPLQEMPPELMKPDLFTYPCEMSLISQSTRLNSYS

SMILES | activation
CCc1ccc(OP(C)(=O)O)cc1 | inactive: 3.55%
CP(=O)(Nc1ccccn1)Oc1ccccc1 (stereo unspecified) | inactive: -0.512%
COc1ccccc1OP(C)(=O)Nc1ccc(C)cc1C (stereo unspecified) | inactive: 0.732%
O=[N+]([O-])c1cc([N+](=O)[O-])c(Nc2ccccn2)c([N+](=O)[O-])c1 | inactive: 5.22%
Cc1c(NP(C)(=O)Oc2ccc(C(C)C)cc2)c(=O)n(-c2ccccc2)n1C (stereo unspecified) | inactive: 0.477%
CN(C)CCOC(=O)C(O)(c1ccccc1)C1CCCC1 (stereo unspecified) | inactive: -1.04%
COc1ccc(OP(C)(=O)Nc2ccccn2)cc1 (stereo unspecified) | inactive: 1.96%
COc1ccccc1OP(C)(=O)Nc1ccc(Br)cc1 (stereo unspecified) | inactive: 0%
CP(=O)(OCCOc1ccccc1)OCCOc1ccccc1 | inactive: -2.14%
CP(=O)(Nc1ccc(Cl)cc1Cl)Oc1ccccc1 (stereo unspecified) | inactive: 2.85%
Cc1nc2ccc3ccccc3c2o1.O=[N+]([O-])c1cc([N+](=O)[O-])c(O)c([N+](=O)[O-])c1 | inactive: 0.15%
COc1ccc(OP(C)(=O)Nc2ccccc2Br)cc1 (stereo unspecified) | inactive: 3.39%
COc1ccccc1OP(C)(=O)Nc1ccc(C)c(C)c1 (stereo unspecified) | inactive: -0.464%
Cc1cc(C)cc(OP(C)(=O)Nc2cccc(C(F)(F)F)c2)c1 (stereo unspecified) | inactive: -0.688%
CP(=O)(OC12CC3CC(CC(C3)C1)C2)OC12CC3CC(CC(C3)C1)C2 | inactive: -0.582%
CCOC(=O)c1ccc(NP(C)(=O)Oc2ccc(Cl)cc2)cc1 (stereo unspecified) | inactive: -0.181%
CN(C)C(=O)c1c([N+](=O)[O-])cc([N+](=O)[O-])cc1[N+](=O)[O-] | inactive: -0.773%
CP(=O)(Nc1ccc(Cl)cc1)Oc1ccc(F)cc1 (stereo unspecified) | inactive: 0.678%
CC(C)(C)c1ccc(OP(C)(=O)O)cc1 | inactive: -0.918%
COc1ccccc1OP(C)(=O)Nc1ccccc1Br (stereo unspecified) | inactive: 4%
CP(=O)(Oc1ccccc1)N1CCOC1=O (stereo unspecified) | inactive: 2.63%

SMILES | activation
CCc1ccc(OP(C)(=O)Nc2cccnc2)cc1 (stereo unspecified) | inactive: -0.569%
COc1ccccc1OP(C)(=O)Nc1c(C)n(C)n(-c2ccccc2)c1=O (stereo unspecified) | inactive: 1.18%
O=C(OCCCN1CCCC1)C(O)(c1ccccc1)C1CCCCC1 (stereo unspecified) | inactive: -3.39%
CCN(CC)CC(O)COC(=O)C(O)(c1ccccc1)C1CCCCC1 (stereo unspecified) | inactive: -0.325%
COc1ccc(OP(C)(=O)Nc2ccc(Br)cc2)cc1 (stereo unspecified) | inactive: 4.27%
Cc1ccccc1NP(C)(=O)Nc1ccccc1C | inactive: 2.23%
CP(=O)(Nc1ccc2c(c1)OCCO2)Oc1ccccc1 (stereo unspecified) | inactive: -1.8%
CCOP(C)(=S)SCC(=O)NC(C)(CC)C(=O)O (stereo unspecified) | inactive: 0.353%
CP(=O)(Nc1ccc(SC(F)(F)F)cc1)Oc1ccc(F)cc1 (stereo unspecified) | inactive: 0.607%
Cc1cc(-c2cccc3ccccc23)c(C)cn1.O=[N+]([O-])c1cc([N+](=O)[O-])c(O)c([N+](=O)[O-])c1 | inactive: -2.2%
O=[N+]([O-])c1ccc(OP2(=O)COCCO2)cc1 (stereo unspecified) | inactive: -0.84%
COc1ccc(NP(C)(=O)Oc2ccccc2OC)cc1 (stereo unspecified) | inactive: 0.217%
CN(C)CCOC(=O)C(O)(c1ccccc1)C1CCCCC1 (stereo unspecified) | inactive: -0.237%
COc1ccc(OP(C)(=O)Nc2cccc(Br)c2)cc1 (stereo unspecified) | inactive: -0.155%
CCCCCOc1ccc(NP(C)(=O)Oc2ccc(Cl)cc2Cl)cc1 (stereo unspecified) | inactive: -8.1%
CP(=O)(Nc1ccccc1)Oc1ccc(F)cc1 (stereo unspecified) | inactive: 2.15%
CCN(CC)CCCOC(=O)C(O)(c1ccccc1)C1CCCCC1 (stereo unspecified) | inactive: 0.049%
COc1ccc(OP(C)(=O)Nc2ccc(SC(F)(F)F)cc2)cc1 (stereo unspecified) | inactive: -1.16%
CCOC(=O)c1ccc(NP(C)(=O)Oc2ccc(F)cc2)cc1 (stereo unspecified) | inactive: -0.0452%
O=C(OCCN1CCN(CCOCc2ccccc2)CC1)C(O)(c1ccccc1)c1ccccc1 | inactive: 2.53%
CC(C)c1ccc(OP(C)(=O)Nc2ccc(SC(F)(F)F)cc2)cc1 (stereo unspecified) | inactive: -0.345%

SMILES | activation
CP(=O)(Nc1ccccc1F)Oc1ccccc1 (stereo unspecified) | inactive: 1.24%
CP(=O)(Nc1cccc(Br)c1)Oc1ccccc1 (stereo unspecified) | inactive: -0.0777%
Cc1cc(C)cc(OP(C)(=O)Nc2ccccn2)c1 (stereo unspecified) | inactive: 0.383%
Cc1ccc(C)c(NP(C)(=O)Oc2ccccc2)c1 (stereo unspecified) | inactive: 2.96%
Cc1cc(C)cc(OP(C)(=O)Nc2ccc(C)cc2C)c1 (stereo unspecified) | inactive: 1.39%
CCOC(=O)c1ccc(NP(C)(=O)Oc2cc(C)cc(C)c2)cc1 (stereo unspecified) | inactive: -0.35%
COc1ccccc1OP(C)(=O)Nc1cccc(Br)c1 (stereo unspecified) | inactive: 1.05%
CC1=NCCc2c1[nH]c1ccccc21.O=[N+]([O-])c1cc([N+](=O)[O-])c(O)c([N+](=O)[O-])c1 | inactive: 2.46%
CP(=O)(Nc1ccc(SC(F)(F)F)cc1)Oc1ccccc1 (stereo unspecified) | inactive: -1.24%
CCCOc1ccc(NP(C)(=O)Oc2ccc(Cl)cc2)cc1 (stereo unspecified) | inactive: 0.971%
CN1CCCCC1COC(=O)C1(O)c2ccccc2CCc2ccccc21 (stereo unspecified) | inactive: 0.778%
COc1ccccc1OP(C)(=O)Nc1c(C)cccc1C (stereo unspecified) | inactive: -0.0316%
O=[N+]([O-])c1cc([N+](=O)[O-])c(Nc2nnnn2CCO)c([N+](=O)[O-])c1 | inactive: 0.309%
CC1=C2N=C(C=C3N=C(C(C)=C4[N-][C@@](C)([C@@H]5N=C1[C@](C)(CCC(=O)NC[C@@H](C)OP(=O)([O-])O[C@H]1[C@@H](O)[C@@H](n6cnc7cc(C)c(C)cc76)O[C@@H]1CO)[C@H]5CC(N)=O)[C@@](C)(CC(N)=O)[C@@H]4CCC(N)=O)[C@@](C)(CC(N)=O)[C@@H]3CCC(N)=O)C(C)(C)[C@@H]2CCC(N)=O.[C-]#N.[Co+3] | inactive: -0.51%
Cc1nc2ccc3ccccc3c2s1.O=[N+]([O-])c1cc([N+](=O)[O-])c(O)c([N+](=O)[O-])c1 | inactive: -0.642%
O=[N+]([O-])c1cc([N+](=O)[O-])c(-n2nnc3ccccc32)c([N+](=O)[O-])c1 | inactive: 4.61%
CP(=O)(Nc1ccccn1)Oc1ccc(Cl)cc1 (stereo unspecified) | inactive: 0.426%
CCOP(C)(=S)SCC(=O)NC(C)C(=O)O (stereo unspecified) | inactive: 0.332%
CCOC(=O)c1ccc(NP(C)(=O)Oc2ccc(OC)cc2)cc1 (stereo unspecified) | inactive: 2.34%
CCc1ccc(OP(C)(=O)N2CCN(c3ccc([N+](=O)[O-])cc3)CC2)cc1 (stereo unspecified) | inactive: -1.95%
CP(=O)(NC(=O)Nc1ccccc1)Oc1ccccc1 (stereo unspecified) | inactive: 1.14%

SMILES | activation
Cc1cc(C)cc(OP(C)(=O)Nc2ccc(SC(F)(F)F)cc2)c1 (stereo unspecified) | inactive: 0.947%
CP(=O)(Nc1ccc(SC(F)(F)F)cc1)Oc1ccc(Cl)cc1 (stereo unspecified) | inactive: 2.22%
Cc1cccc(C)c1OP(C)(=O)Nc1ccc(SC(F)(F)F)cc1 (stereo unspecified) | inactive: 0.76%
CP(=O)(Oc1ccccc1)OC(c1ccccc1)C(F)(F)F (stereo unspecified) | inactive: 2.07%
COc1ccccc1OP(C)(=O)Nc1ccccc1 (stereo unspecified) | inactive: 0.341%
CP(=O)(Nc1ccccc1Br)Oc1ccccc1 (stereo unspecified) | inactive: 1.15%
CP(=S)(Nn1cnnc1)Oc1ccccc1 (stereo unspecified) | inactive: 1.32%
COc1ccccc1OP(C)(=O)Nc1cc(Cl)ccc1C (stereo unspecified) | inactive: 1.87%
COc1ccc(OP(C)(=O)Nc2cccc(F)c2)cc1 (stereo unspecified) | inactive: 0.131%
Cc1cc(C)cc(OP(C)(N)=O)c1 (stereo unspecified) | inactive: 1.29%
CCOC(=O)c1ccc(NP(C)(=O)Oc2ccccc2)cc1 (stereo unspecified) | inactive: -1.19%
COc1ccccc1OP(C)(=O)Nc1ccc(C)cc1 (stereo unspecified) | inactive: -0.517%
Cc1ccc(NP(C)(=O)Oc2ccccc2)c(C)c1 (stereo unspecified) | inactive: 2.99%
CC(C)(C)c1ccc(OP(C)(=O)Nc2ccc(SC(F)(F)F)cc2)cc1 (stereo unspecified) | inactive: -0.396%
Cc1cccc(C)c1OP(C)(N)=O (stereo unspecified) | inactive: 0.162%
O=[N+]([O-])c1ccc2c(c1)C=Nc1ccccc1O2 | inactive: 1.11%
O=[N+]([O-])c1cc([N+](=O)[O-])c(Nc2cccnc2)c([N+](=O)[O-])c1 | inactive: -2.32%
CCN(CC)CCCOC(=O)C(O)(c1ccccc1)c1ccccc1 | inactive: 0.0932%
